# Molecular target: T1, Cytosolic phospholipase A2 (Homo sapiens, UniProt P47712)
# T1 sequence (P47712 whole entry): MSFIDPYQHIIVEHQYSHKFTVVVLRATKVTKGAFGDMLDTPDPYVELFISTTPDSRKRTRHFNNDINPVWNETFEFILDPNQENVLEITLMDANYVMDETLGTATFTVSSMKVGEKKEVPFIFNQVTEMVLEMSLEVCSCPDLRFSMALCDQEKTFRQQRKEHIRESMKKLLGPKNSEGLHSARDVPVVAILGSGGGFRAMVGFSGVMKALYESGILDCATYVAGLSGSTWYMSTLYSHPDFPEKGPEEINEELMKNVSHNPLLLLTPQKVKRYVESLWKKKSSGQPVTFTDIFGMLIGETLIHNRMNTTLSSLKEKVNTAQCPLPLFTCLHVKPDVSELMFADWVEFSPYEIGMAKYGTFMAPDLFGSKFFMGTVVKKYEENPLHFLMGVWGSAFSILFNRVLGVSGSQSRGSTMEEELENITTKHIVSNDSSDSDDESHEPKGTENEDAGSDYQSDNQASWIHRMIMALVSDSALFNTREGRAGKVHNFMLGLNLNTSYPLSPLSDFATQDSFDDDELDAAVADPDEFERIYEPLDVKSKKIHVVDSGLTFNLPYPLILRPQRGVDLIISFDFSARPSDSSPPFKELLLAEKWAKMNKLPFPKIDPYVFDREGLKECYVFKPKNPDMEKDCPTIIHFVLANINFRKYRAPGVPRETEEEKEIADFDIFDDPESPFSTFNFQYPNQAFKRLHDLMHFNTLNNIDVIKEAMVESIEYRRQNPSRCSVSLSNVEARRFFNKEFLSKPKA
# Assay: Inhibition of human cytosolic PLA2alpha by GLU micelle assay
# Procedure, shortened: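 Purified human cPLA2α with the substrate 7-hydroxycoumarinyl-γ-linolenate (GLU), presented in micelles containing a high concentration of detergent and lipid. IC50 is taken from at least two runs, each run the mean of duplicate assays.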
row,Structure (SMILES),IC50 [nM]
1,CC1CN(CCS(=O)(=O)NCCc2c(CCOc3ccc(C(=O)O)cc3)c3cc(Cl)ccc3n2C(c2ccccc2)c2ccccc2)CC(C)N1 (configuration not stated),600
2,O=C(O)c1ccc(OCCc2c(CCNS(=O)(=O)CCn3ccnc3)n(C(c3ccccc3)c3ccccc3)c3ccc(Cl)cc23)cc1,550
3,CC1C(=O)NCCN1CCS(=O)(=O)NCCc1c(CCOc2ccc(C(=O)O)cc2)c2cc(Cl)ccc2n1C(c1ccccc1)c1ccccc1 (configuration not stated),200
4,O=C(O)c1ccc(OCCc2c(CCNS(=O)(=O)CCN3CCSC3)n(C(c3ccccc3)c3ccccc3)c3ccc(Cl)cc23)cc1,330
5,O=C(O)c1ccc(OCCc2c(CCNS(=O)(=O)CCn3cccn3)n(C(c3ccccc3)c3ccccc3)c3ccc(Cl)cc23)cc1,320

# The next lines start with the values.
row,IC50 [nM],Structure (SMILES)
1,170,O=C(O)c1ccc(OCCc2c(CCNS(=O)(=O)CCN3CCSCC3)n(C(c3ccccc3)c3ccccc3)c3ccc(Cl)cc23)cc1
2,490,CC(=O)N1CCN(CCS(=O)(=O)NCCc2c(CCOc3ccc(C(=O)O)cc3)c3cc(Cl)ccc3n2C(c2ccccc2)c2ccccc2)CC1
